The subject of experiment [1] is HCT116 colorectal cancer cells. As to the kind of experiment: Cisplatin Sensitization Assay (96h cell viability MTS). The conditions noted are these: concentration of compound required to reduce the IC50 of Cisplatin alone by at least 3-fold, 96h MTS. As to the method: Compounds can be screened for their ability to sensitize HCT116 colorectal cancer cells to Cisplatin using a 96h cell viability (MTS) assay. […] Compounds and Cisplatin are then both added simultaneously to the cell media in 2-fold serial dilutions from a top final concentration of 10 μM as a full matrix of concentrations in a final cell volume of 200 μl, and the cells are then incubated at 37° C. in 5% CO2. After 96h, 40 μl of […] (Promega G358a) is added to each well and the cells are incubated for 1 h at 37° C. in 5% CO2. Finally, absorbance is measured at 490 nm using a SpectraMax Plus 384 reader (Molecular Devices) and the concentration of compound required to reduce the IC50 of Cisplatin alone by at least 3-fold (to 1 decimal place) can be reported (CP3 shift).

Sequences of proteins named here, by UniProt entry; tags and fusion partners are left off.
UniProt Q13535, whole entry: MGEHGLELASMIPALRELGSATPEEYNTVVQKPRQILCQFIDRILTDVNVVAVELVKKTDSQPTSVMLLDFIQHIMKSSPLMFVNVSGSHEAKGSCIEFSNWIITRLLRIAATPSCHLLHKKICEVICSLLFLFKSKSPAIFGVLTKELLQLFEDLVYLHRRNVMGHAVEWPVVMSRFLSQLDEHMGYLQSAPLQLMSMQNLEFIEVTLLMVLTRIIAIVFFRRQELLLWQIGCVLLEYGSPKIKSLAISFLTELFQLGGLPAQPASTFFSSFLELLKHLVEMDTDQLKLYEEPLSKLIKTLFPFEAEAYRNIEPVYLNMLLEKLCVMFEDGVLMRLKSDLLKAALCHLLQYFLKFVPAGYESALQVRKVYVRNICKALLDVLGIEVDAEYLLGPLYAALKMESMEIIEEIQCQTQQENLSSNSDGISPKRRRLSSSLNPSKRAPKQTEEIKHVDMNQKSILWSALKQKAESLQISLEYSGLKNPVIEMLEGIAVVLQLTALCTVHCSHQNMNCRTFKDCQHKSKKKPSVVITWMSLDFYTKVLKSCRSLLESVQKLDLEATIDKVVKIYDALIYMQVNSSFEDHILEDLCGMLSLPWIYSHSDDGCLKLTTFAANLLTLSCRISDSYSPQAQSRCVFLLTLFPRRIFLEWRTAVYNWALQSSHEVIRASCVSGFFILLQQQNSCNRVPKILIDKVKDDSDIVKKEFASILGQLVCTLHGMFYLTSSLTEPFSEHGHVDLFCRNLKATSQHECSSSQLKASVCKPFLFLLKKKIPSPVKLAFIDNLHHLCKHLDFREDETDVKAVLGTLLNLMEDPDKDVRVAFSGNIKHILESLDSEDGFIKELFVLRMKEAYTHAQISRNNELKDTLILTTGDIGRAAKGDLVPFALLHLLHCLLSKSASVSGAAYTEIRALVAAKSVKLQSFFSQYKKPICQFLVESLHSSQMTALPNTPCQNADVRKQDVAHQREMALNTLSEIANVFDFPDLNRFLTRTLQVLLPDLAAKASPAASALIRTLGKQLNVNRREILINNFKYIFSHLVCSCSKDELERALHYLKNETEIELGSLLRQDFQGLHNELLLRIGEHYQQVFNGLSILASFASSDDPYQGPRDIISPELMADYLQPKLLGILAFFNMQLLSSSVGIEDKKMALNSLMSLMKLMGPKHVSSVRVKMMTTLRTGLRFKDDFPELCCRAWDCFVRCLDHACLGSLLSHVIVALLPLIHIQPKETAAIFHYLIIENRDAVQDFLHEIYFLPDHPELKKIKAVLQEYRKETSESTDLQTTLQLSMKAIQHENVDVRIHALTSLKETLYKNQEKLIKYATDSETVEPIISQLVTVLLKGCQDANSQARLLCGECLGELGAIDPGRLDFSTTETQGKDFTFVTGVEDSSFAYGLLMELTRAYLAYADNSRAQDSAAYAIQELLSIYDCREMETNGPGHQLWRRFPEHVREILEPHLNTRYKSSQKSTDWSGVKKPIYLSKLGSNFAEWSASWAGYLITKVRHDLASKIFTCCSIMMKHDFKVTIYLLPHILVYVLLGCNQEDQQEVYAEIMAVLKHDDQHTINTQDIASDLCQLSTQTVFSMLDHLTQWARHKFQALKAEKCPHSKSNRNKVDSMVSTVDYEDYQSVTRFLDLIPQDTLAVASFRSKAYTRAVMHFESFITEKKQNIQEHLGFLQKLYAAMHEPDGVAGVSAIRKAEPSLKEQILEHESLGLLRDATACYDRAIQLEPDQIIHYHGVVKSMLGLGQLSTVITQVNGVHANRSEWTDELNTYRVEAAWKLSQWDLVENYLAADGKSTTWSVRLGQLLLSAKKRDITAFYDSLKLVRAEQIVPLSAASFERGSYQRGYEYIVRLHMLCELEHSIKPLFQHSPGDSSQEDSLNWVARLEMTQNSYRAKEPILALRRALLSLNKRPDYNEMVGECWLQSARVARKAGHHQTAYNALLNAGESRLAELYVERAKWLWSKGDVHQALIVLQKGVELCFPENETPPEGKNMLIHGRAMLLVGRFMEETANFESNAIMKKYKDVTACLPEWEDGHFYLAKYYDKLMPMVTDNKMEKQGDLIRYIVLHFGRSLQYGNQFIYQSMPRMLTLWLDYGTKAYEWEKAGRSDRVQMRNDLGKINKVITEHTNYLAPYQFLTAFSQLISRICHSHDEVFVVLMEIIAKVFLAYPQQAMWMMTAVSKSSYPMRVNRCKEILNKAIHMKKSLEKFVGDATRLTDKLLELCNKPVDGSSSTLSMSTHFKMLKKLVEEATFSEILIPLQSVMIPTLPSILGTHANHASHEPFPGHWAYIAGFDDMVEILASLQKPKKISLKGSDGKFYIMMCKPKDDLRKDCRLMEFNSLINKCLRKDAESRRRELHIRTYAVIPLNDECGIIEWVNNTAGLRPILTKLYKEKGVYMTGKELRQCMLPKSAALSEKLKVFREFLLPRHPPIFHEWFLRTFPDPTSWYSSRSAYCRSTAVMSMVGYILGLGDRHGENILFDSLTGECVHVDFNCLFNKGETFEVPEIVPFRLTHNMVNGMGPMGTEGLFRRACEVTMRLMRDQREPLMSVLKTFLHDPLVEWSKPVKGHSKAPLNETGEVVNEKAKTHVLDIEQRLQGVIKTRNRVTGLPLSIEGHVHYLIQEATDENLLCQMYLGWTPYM

The next experiment deals with full-length ATR (Homo sapiens (Human), UniProt Q13535). As to the kind of experiment: ATR Inhibition Assay (radioactive-phosphate incorporation). The conditions noted are these: read-out: Ki Value; ATR Inhibition Ki(app); 10 μM ATP, 800 μM target peptide, 5 nM full-length ATR, 25° C.

On to `CNCc1ccc(-c2cc(-c3nc(-c4ccc(=O)n(C5CCCC5)c4)cnc3N)on2)cc1`, for which the “CP3 shift” value in experiment [1] was 0.078 µM. As to `CC(N)c1cccc(-c2cc(-c3nc(-c4ccc(=O)n(C5CCCC5)c4)cnc3N)on2)c1` (stereo not shown), the “CP3 shift” value in experiment [1] is 0.039 µM. Consider `CNCc1ccc(-c2cc(-c3nc(-c4ccc(=O)n(CCO)c4)cnc3N)on2)cc1`, for which the Ki at full-length ATR was below 5 nM.

As to `CC(C)n1cc(-c2cnc(N)c(-c3cc(-c4ccc(CNC(C)(C)C)cc4)no3)n2)ccc1=O`, in experiment [1], the “CP3 shift” value amounted to 0.312 µM.
